According to US6924314B2, “Compounds for the treatment of metabolic disorders” (Wellstat Therapeutics Corporation, priority 2001, dated 2005):

Tested on: ob/ob mice
Test: Hyperglycemia, hyperlipidemia, fatty liver disease and weight gain in ob/ob obese diabetic mice, daily oral dosing
Type: in vivo, C57BL/6 mice
Conditions: serum, 4 weeks
Text: Ob/ob mice have a defect in the gene for leptin, a protein involved in appetite regulation and energy metabolism, and are hyperphagic, obese, and insulin resistant. They develop hyperglycemia and fatty liver.

`CN(CCOc1ccc(CC2SC(=O)NC2=O)cc1)c1ccccn1` (stereo not drawn) [Rosiglitazone, rosiglitazone] was tested, and the “ALT (U/L) ± SEM” value (1 mg/kg/day oral) was 668.8 ± 42.9 U/L, the “AST (U/L) ± SEM” value (1 mg/kg/day oral) was 798.0 ± 73.8 U/L and the “SDH (U/L) ± SEM” value (1 mg/kg/day oral) was 644.5 ± 51.6 U/L. The “ALT (U/L) ± SEM” value (3 mg/kg/day oral) was 716.6 ± 56.6 U/L, the “AST (U/L) ± SEM” value (3 mg/kg/day oral) was 853.8 ± 43.8 U/L and the “SDH (U/L) ± SEM” value (3 mg/kg/day oral) was 615.4 ± 38.6 U/L. For the same molecule, the “ALT (U/L) ± SEM” value (10 mg/kg/day oral) was 713.6 ± 80.5 U/L, the “AST (U/L) ± SEM” value (10 mg/kg/day oral) was 1024.0 ± 88.7 U/L and the “SDH (U/L) ± SEM” value (10 mg/kg/day oral) was 782.0 ± 70.6 U/L. For the same molecule, the “ALT (U/L) ± SEM” value (30 mg/kg/day oral) was 646.0 ± 56.1 U/L, the “AST (U/L) ± SEM” value (30 mg/kg/day oral) was 901.2 ± 49.3 U/L and the “SDH (U/L) ± SEM” value (30 mg/kg/day oral) was 603.0 ± 27.3 U/L.
